# According to article PMC9476189 (ACS Omega, 2022):
# By UniProt entry, the sequences of proteins in these tests, tags left out. Residues count along the entry.
# UniProt P22303, 32-614: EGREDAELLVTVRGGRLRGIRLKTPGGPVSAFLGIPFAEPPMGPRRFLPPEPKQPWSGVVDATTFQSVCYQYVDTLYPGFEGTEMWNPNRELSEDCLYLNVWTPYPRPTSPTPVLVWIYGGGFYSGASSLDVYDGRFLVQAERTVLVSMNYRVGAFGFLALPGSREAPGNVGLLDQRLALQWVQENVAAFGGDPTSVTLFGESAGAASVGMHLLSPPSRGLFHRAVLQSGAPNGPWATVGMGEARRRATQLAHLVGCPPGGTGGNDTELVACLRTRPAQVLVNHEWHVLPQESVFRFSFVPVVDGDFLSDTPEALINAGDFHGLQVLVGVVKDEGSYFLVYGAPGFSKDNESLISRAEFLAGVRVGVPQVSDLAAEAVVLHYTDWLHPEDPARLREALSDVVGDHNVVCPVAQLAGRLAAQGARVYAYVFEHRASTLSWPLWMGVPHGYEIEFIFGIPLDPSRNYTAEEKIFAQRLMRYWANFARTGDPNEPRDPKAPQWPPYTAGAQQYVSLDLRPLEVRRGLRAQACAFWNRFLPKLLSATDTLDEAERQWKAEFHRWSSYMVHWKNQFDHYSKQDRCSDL
# Marks after values point to notes of the source that are not given here.
# Target: AChE (Homo sapiens, UniProt P22303)
# Details: mean ± SEM, triplicate
smiles,measurement,value
"CNC(=O)Oc1ccc2c(c1)[C@]1(C)CCN(C)[C@@H]1N2C [Eserine, reference compound]","AChE inhibition, inhibition (%) at 0.5 mM",91.27±1.17^a %
